Reference: US20090099157A1, “TETRAHYDRO-PYRAZOLO-PYRIDINE THIOETHER MODULATORS OF CATHEPSIN S” (priority 2007, published 2009)

Chains of the proteins cited; added tags and fusions are not shown. Residues count along the entry.
UniProt P25774, 115-331: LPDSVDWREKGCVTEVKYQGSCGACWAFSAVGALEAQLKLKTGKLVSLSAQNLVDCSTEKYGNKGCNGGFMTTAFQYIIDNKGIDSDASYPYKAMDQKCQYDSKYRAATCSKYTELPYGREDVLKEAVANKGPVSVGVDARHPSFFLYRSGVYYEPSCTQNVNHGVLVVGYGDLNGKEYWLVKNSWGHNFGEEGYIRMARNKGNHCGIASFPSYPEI

The molecules below were run against Recombinant human cathepsin S (CatS) (Homo sapiens, UniProt P25774) (assay: biochemical).

In order of falling IC50:
1. OC(CN1CCOCC1)Cn1nc(-c2ccc(C(F)(F)F)c(SCCN3CCC(F)(F)C3)c2)c2c1CCNC2 (stereo not shown) [Example 298, 1-{3-[3-{[2-(3,3-Difluoropyrrolidin-1-yl)ethyl]sulfanyl}-4-(trifluoromethyl)phenyl]-4,5,6,7-tetrahydro-1H-pyrazolo[4,3-c]pyridin-1-yl}-3-morpholin-4-ylpropan-2-ol]  6.02 µM
2. CN(C)C1CCN(CC(O)Cn2nc(-c3ccc(C(F)(F)F)c(SCCN4CCOCC4)c3)c3c2CCN(S(C)(=O)=O)C3)CC1 (stereo not shown) [Example 553, 1-[4-(Dimethylamino)piperidin-1-yl]-3-[5-(methylsulfonyl)-3-{3-[(2-morpholin-4-ylethyl)sulfanyl]-4-(trifluoromethyl)phenyl}-4,5,6,7-tetrahydro-1H-pyrazolo[4,3-c]pyridin-1-yl]propan-2-ol]  1.92 µM
3. NC(=O)NC1CCN(C[C@H](O)Cn2nc(-c3ccc(C(F)(F)F)c(SCCN4CCC(F)CC4)c3)c3c2CCNC3)CC1 [Example 341, 1-{1-[(2S)-3-{3-[3-{[2-(4-Fluoropiperidin-1-yl)ethyl]sulfanyl}-4-(trifluoromethyl)phenyl]-4,5,6,7-tetrahydro-1H-pyrazolo[4,3-c]pyridin-1-yl}-2-hydroxypropyl]piperidin-4-yl}urea]  1.4 µM
4. COCCCNCCSc1cc(-c2nn(CCCN3CCC(N4CCCC4=O)CC3)c3c2CN(S(C)(=O)=O)CC3)ccc1C(F)(F)F [Example 31, 1-{1-[3-(5-Methanesulfonyl-3-{3-[2-(3-methoxy-propylamino)-ethylsulfanyl]-4-trifluoromethyl-phenyl}-4,5,6,7-tetrahydro-pyrazolo[4,3-c]pyridin-1-yl)-propyl]-piperidin-4-yl}-pyrrolidin-2-one]  0.9 µM
5. CS(=O)(=O)N1CCc2c(c(-c3ccc(C(F)(F)F)c(SCCN4CCOC(CO)C4)c3)nn2CCCN2CCCCC2)C1 (stereo not shown) [Example 147, {4-[2-({5-[5-(Methylsulfonyl)-1-(3-piperidin-1-ylpropyl)-4,5,6,7-tetrahydro-1H-pyrazolo[4,3-c]pyridin-3-yl]-2-(trifluoromethyl)phenyl}sulfanyl)ethyl]morpholin-2-yl}methanol]  0.6 µM
6. CC1(C)CCN(CC(O)Cn2nc(-c3ccc(C(F)(F)F)c(SCCN4CCOCC4)c3)c3c2CCN(S(C)(=O)=O)C3)CC1 (stereo not shown) [Example 176, 1-(4,4-Dimethylpiperidin-1-yl)-3-[5-(methylsulfonyl)-3-{3-[(2-morpholin-4-ylethyl)sulfanyl]-4-(trifluoromethyl)phenyl}-4,5,6,7-tetrahydro-1H-pyrazolo[4,3-c]pyridin-1-yl]propan-2-ol]  0.5 µM
7. CC(=O)N1CCc2c(c(-c3ccc(C(F)(F)F)c(SCC(=O)N4CCCC4)c3)nn2CC(O)CN2CCCCC2)C1 (stereo not shown) [Example 279, 1-(5-Acetyl-3-{3-[(2-oxo-2-pyrrolidin-1-ylethyl)sulfanyl]-4-(trifluoromethyl)phenyl}-4,5,6,7-tetrahydro-1H-pyrazolo[4,3-c]pyridin-1-yl)-3-piperidin-1-ylpropan-2-ol]  0.39 µM
8. CS(=O)(=O)N1CCc2c(c(-c3ccc(C(F)(F)F)c(SCCN4CCCC(F)C4)c3)nn2C[C@@H](O)CN2CCSCC2)C1 (stereo partly drawn) [Example 502, (2S)-1-{3-[3-{[2-(3-Fluoropiperidin-1-yl)ethyl]sulfanyl}-4-(trifluoromethyl)phenyl]-5-(methylsulfonyl)-4,5,6,7-tetrahydro-1H-pyrazolo[4,3-c]pyridin-1-yl}-3-thiomorpholin-4-ylpropan-2-ol]  0.37 µM
9. CS(=O)(=O)N1CCc2c(c(-c3ccc(C(F)(F)F)c(SCCN4CCCC4)c3)nn2CC(O)CN2CCC(N3CCOCC3)CC2)C1 (stereo not shown) [Example 646, 1-[5-(Methylsulfonyl)-3-{3-[(2-pyrrolidin-1-ylethyl)sulfanyl]-4-(trifluoromethyl)phenyl}-4,5,6,7-tetrahydro-1H-pyrazolo[4,3-c]pyridin-1-yl]-3-(4-morpholin-4-ylpiperidin-1-yl)propan-2-ol]  0.36 µM
10. CS(=O)(=O)N1CCc2c(c(-c3ccc(C(F)(F)F)c(SCCN4CC[C@H](F)C4)c3)nn2C[C@@H](O)CN2CCC(NC(=O)CO)CC2)C1 [Example 658, N-{1-[(2S)-3-{3-[3-({2-[(3S)-3-Fluoropyrrolidin-1-yl]ethyl}sulfanyl)-4-(trifluoromethyl)phenyl]-5-(methylsulfonyl)-4,5,6,7-tetrahydro-1H-pyrazolo[4,3-c]pyridin-1-yl}-2-hydroxypropyl]piperidin-4-yl}-2-hydroxyacetamide]  0.33 µM
11. CC(C)(C)OC(=O)N1CCC(CC(=O)N2CCc3c(c(-c4ccc(C(F)(F)F)c(SCCN5CCC(F)CC5)c4)nn3CC(O)CN3CCCCC3)C2)CC1 (stereo not shown) [Example 886, 1,1-Dimethylethyl 4-(2-{3-[3-{[2-(4-fluoropiperidin-1-yl)ethyl]sulfanyl}-4-(trifluoromethyl)phenyl]-1-(2-hydroxy-3-piperidin-1-ylpropyl)-1,4,6,7-tetrahydro-5H-pyrazolo[4,3-c]pyridin-5-yl}-2-oxoethyl)piperidine-1-carboxylate]  0.32 µM
12. CS(=O)(=O)N1CCc2c(c(-c3ccc(C(F)(F)F)c(SCC(=O)N4CCC[C@H]4C(F)(F)F)c3)nn2CCCN2CCC(N3CCCC3=O)CC2)C1 [Example 83, (S)-1-{1-[3-(5-Methanesulfonyl-3-{3-[2-oxo-2-(2-trifluoromethyl-pyrrolidin-1-yl)-ethylsulfanyl]-4-trifluoromethyl-phenyl}-4,5,6,7-tetrahydro-pyrazolo[4,3-c]pyridin-1-yl)-propyl]-piperidin-4-yl}-pyrrolidin-2-one]  0.28 µM
13. CS(=O)(=O)N1CCc2c(c(-c3ccc(C(F)(F)F)c(SCCN4CCC(F)CC4)c3)nn2CC(O)CN2CCC(N3CCCC3)CC2)C1 (stereo not shown) [Example 692, 1-{3-[3-{[2-(4-Fluoropiperidin-1-yl)ethyl]sulfanyl}-4-(trifluoromethyl)phenyl]-5-(methylsulfonyl)-4,5,6,7-tetrahydro-1H-pyrazolo[4,3-c]pyridin-1-yl}-3-(4-pyrrolidin-1-ylpiperidin-1-yl)propan-2-ol]  0.28 µM
14. CC(C)(C)OC(=O)N1CCC(C(=O)NCCSc2cc(-c3nn(CC(O)CN4CCC(N5CCCC5=O)CC4)c4c3CN(S(C)(=O)=O)CC4)ccc2C(F)(F)F)CC1 (stereo not shown) [Example 116, 4-{2-[5-(1-{2-Hydroxy-3-[4-(2-oxo-pyrrolidin-1-yl)-piperidin-1-yl]-propyl}-5-methanesulfonyl-4,5,6,7-tetrahydro-1H-pyrazolo[4,3-c]pyridin-3-yl)-2-trifluoromethyl-phenylsulfanyl]-ethylcarbamoyl}-piperidine-1-carboxylic acid tert-butyl ester]  0.19 µM
15. CC1CCCCN1CCSc1cc(-c2nn(CCCN3CCC(N4CCCC4=O)CC3)c3c2CN(S(C)(=O)=O)CC3)ccc1C(F)(F)F (stereo not shown) [Example 18, 1-{1-[3-(5-Methanesulfonyl-3-{3-[2-(2-methyl-piperidin-1-yl)-ethylsulfanyl]-4-trifluoromethyl-phenyl}-4,5,6,7-tetrahydro-pyrazolo[4,3-c]pyridin-1-yl)-propyl]-piperidin-4-yl}-pyrrolidin-2-one]  0.18 µM
16. CCOC(=O)NC1CCN(CC(O)Cn2nc(-c3ccc(C(F)(F)F)c(SCCN4CCOCC4)c3)c3c2CCN(S(C)(=O)=O)C3)CC1 (stereo not shown) [Example 698, Ethyl (1-{2-hydroxy-3-[5-(methylsulfonyl)-3-{3-[(2-morpholin-4-ylethyl)sulfanyl]-4-(trifluoromethyl)phenyl}-4,5,6,7-tetrahydro-1H-pyrazolo[4,3-c]pyridin-1-yl]propyl}piperidin-4-yl)carbamate]  0.14 µM
17. CS(=O)(=O)NC1CCN(CC(O)Cn2nc(-c3ccc(C(F)(F)F)c(SCCN4CCCCC4)c3)c3c2CCN(S(C)(=O)=O)C3)CC1 (stereo not shown) [Example 710, N-(1-{2-Hydroxy-3-[5-(methylsulfonyl)-3-{3-[(2-piperidin-1-ylethyl)sulfanyl]-4-(trifluoromethyl)phenyl}-4,5,6,7-tetrahydro-1H-pyrazolo[4,3-c]pyridin-1-yl]propyl}piperidin-4-yl)methanesulfonamide]  0.12 µM
18. CS(=O)(=O)N1CCc2c(c(-c3ccc(C(F)(F)F)c(SCC(=O)N4CCCCC4)c3)nn2CC(O)CN2CCC(N3CCOCC3)CC2)C1 (stereo not shown) [Example 264, 1-[5-(Methylsulfonyl)-3-{3-[(2-oxo-2-piperidin-1-ylethyl)sulfanyl]-4-(trifluoromethyl)phenyl}-4,5,6,7-tetrahydro-1H-pyrazolo[4,3-c]pyridin-1-yl]-3-(4-morpholin-4-ylpiperidin-1-yl)propan-2-ol]  0.08 µM
19. CS(=O)(=O)N1CCc2c(c(-c3ccc(C(F)(F)F)c(SCCN4CCCC(CO)C4)c3)nn2CC(O)CN2CCC(c3ccncc3)CC2)C1 (stereo not shown) [Example 775, 1-{3-[3-({2-[3-(Hydroxymethyl)piperidin-1-yl]ethyl}sulfanyl)-4-(trifluoromethyl)phenyl]-5-(methylsulfonyl)-4,5,6,7-tetrahydro-1H-pyrazolo[4,3-c]pyridin-1-yl}-3-(4-pyridin-4-ylpiperidin-1-yl)propan-2-ol]  0.07 µM
20. CC(=O)NC1CCN(C[C@H](O)Cn2nc(-c3ccc(C(F)(F)F)c(SCCN4CCC(C)CC4)c3)c3c2CCN(S(C)(=O)=O)C3)CC1 [Example 645, N-{1-[(2S)-2-Hydroxy-3-{3-[3-{[2-(4-methylpiperidin-1-yl)ethyl]sulfanyl}-4-(trifluoromethyl)phenyl]-5-(methylsulfonyl)-4,5,6,7-tetrahydro-1H-pyrazolo[4,3-c]pyridin-1-yl}propyl]piperidin-4-yl}acetamide]  0.045 µM
21. CS(=O)(=O)N1CCc2c(c(-c3ccc(C(F)(F)F)c(SCCN4CCCC4)c3)nn2CC(O)CN2CCC(c3ncccc3Cl)CC2)C1 (stereo not shown) [Example 743, 1-[4-(3-Chloropyridin-2-yl)piperidin-1-yl]-3-[5-(methylsulfonyl)-3-{3-[(2-pyrrolidin-1-ylethyl)sulfanyl]-4-(trifluoromethyl)phenyl}-4,5,6,7-tetrahydro-1H-pyrazolo[4,3-c]pyridin-1-yl]propan-2-ol]  0.025 µM
22. CS(=O)(=O)N1CCc2c(c(-c3ccc(C(F)(F)F)c(SCCN4CCC(F)CC4)c3)nn2CC(O)CN2CCN(c3ccccc3)CC2)C1 (stereo not shown) [Example 729, 1-{3-[3-{[2-(4-Fluoropiperidin-1-yl)ethyl]sulfanyl}-4-(trifluoromethyl)phenyl]-5-(methylsulfonyl)-4,5,6,7-tetrahydro-1H-pyrazolo[4,3-c]pyridin-1-yl}-3-(4-phenylpiperazin-1-yl)propan-2-ol]  0.02 µM
